# Measurements as given in patent US8383617B2, “Treatment of protein aggregation diseases” (priority 2007, dated 2013).
# By UniProt entry, the sequences of proteins in these tests, tags left out. Residues count along the entry.
# UniProt P05067, 672-711: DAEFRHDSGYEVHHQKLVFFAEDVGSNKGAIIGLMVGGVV
# Molecular target: Synthetic beta-amyloid peptide (Homo sapiens, UniProt P05067)
# Assay: PAGE and silver staining of aggregation reactions incubated with compounds
# Assay type: biochemical
compound,measurement,value
"OCCN1CCN(CCCN2c3ccccc3Sc3ccc(C(F)(F)F)cc32)CC1 [Fluphenazine, fluphenazine]",inhibition of amyloid aggregation by PAGE and silver staining,inhibit the aggregation of the amyloid
